Measured values from paper PMC3349770 (Journal of Medicinal Chemistry, 2012).

Biological target: T1, C3aR (Homo sapiens, UniProt Q16581)
T1 sequence (Q16581 1-482): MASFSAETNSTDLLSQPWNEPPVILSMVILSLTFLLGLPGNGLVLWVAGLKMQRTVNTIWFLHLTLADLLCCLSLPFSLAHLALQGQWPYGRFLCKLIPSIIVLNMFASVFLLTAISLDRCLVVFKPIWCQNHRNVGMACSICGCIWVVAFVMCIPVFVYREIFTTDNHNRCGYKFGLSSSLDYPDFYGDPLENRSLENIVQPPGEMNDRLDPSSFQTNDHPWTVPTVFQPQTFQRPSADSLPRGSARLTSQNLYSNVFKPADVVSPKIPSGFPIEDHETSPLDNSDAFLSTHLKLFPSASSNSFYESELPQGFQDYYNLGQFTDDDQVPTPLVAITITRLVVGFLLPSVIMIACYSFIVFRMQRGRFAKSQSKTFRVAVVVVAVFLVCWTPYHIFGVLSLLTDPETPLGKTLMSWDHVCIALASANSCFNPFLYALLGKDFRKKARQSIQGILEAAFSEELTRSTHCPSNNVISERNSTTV
Test: Calcium flux assay in dbcAMP differentiated U937 cells, agonist mode
Type: cell-based

CC(=O)N[C@@H](Cc1c[nH]c2ccccc12)C(=O)N[C@@H](Cc1c[nH]c2ccccc12)C(=O)N[C@@H](CC(=O)O)C(=O)N[C@@H](CCCNC(=N)N)C(=O)N[C@@H](CCCNC(=N)N)C(=O)N[C@@H](Cc1c[nH]c2ccccc12)C(=O)N[C@@H](CCCNC(=N)N)C(=O)N[C@@H](C)C(=O)N[C@@H](CO)C(=O)N[C@@H](CCCCN)C(=O)N[C@@H](CC(C)C)C(=O)NCC(=O)N[C@@H](CC(C)C)C(=O)N[C@@H](C)C(=O)N[C@@H](CCCNC(=N)N)C(=O)O [SQ007-5, WWDRRWRASKLGLAR]
EC50: 2000 nM
